Results taken from patent US6608082B1, “Treatment of erectile dysfunction using isoquinoline compound melanocortin receptor ligands” (Lion Bioscience AG, priority 1998, dated 2003).

Protein sequences, listed by entry. Tags and fused reporters are not part of them.
UniProt P32245, whole entry: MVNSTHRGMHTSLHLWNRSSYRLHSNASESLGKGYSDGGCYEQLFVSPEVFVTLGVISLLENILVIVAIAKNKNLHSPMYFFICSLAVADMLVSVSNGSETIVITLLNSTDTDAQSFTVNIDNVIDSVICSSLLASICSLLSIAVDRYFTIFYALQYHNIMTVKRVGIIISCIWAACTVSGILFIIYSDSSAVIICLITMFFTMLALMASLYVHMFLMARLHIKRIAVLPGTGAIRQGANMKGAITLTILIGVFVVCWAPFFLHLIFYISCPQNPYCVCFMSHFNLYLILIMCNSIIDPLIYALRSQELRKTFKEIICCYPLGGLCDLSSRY
UniProt Q01726, whole entry: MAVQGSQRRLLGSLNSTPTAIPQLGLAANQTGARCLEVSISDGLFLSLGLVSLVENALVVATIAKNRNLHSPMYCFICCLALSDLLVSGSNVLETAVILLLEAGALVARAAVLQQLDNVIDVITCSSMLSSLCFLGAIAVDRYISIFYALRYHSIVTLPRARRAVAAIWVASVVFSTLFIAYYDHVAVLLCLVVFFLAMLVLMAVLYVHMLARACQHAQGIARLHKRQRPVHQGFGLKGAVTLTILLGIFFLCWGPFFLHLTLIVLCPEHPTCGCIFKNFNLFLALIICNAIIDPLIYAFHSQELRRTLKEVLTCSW

Legend:
MCR-4 = MCR-4 (Homo sapiens, UniProt P32245); assay: Melanocortin receptor binding assay, competition with 125I-HP 467, HEK 293 cells expressing hMCR-4; settings: for pIC50: read-out: MC-4 IC50; for MC-4 IC50: TRG 2414 library, inhibition of binding of 125I-HP 467, HEK 293 cells expressing MCR-4
MCR-1 = MCR-1 (Homo sapiens, UniProt Q01726); assay: Melanocortin receptor binding assay, competition with 125I-HP 467, HEK 293 cells expressing hMCR-1; settings: for pIC50: read-out: MC-1 IC50; for MC-1 IC50: TRG 2414 library, inhibition of binding of 125I-HP 467, HEK 293 cells expressing MCR-1
[1] = TRG 2408 and TRG 2409 libraries, inhibition of 125I-HP 467 binding
[2] = competition with 125I-HP 467, HEK 293 cells expressing MCR-4
[3] = competition with 125I-HP 467, HEK 293 cells expressing MCR-1

Row | Compound | pIC50 (MCR-4; [1]) | pIC50 (MCR-1; [1]) | further results
1 | CNCCN[C@H](CN)CCCN1Cc2ccccc2C(CNCc2ccccc2O)C1c1ccc(Cl)cc1Cl (some centres unmarked) | 5.41 | 5.78 | –
2 | CN[C@H](CN)CCCCN1Cc2ccccc2C(CNCc2ccccc2O)C1c1ccc(NCCc2ccccc2)cc1 (some centres unmarked) | – | – | pIC50 (MCR-4; [2]): 5.01; pIC50 (MCR-1; [3]): 5.99
3 | CCNc1ccc(C2C(CNCc3ccccc3O)c3ccccc3CN2CCCC[C@H](CN)NC)cc1 (some centres unmarked) | 4.42 | 5.99 | –
4 | NC(=O)[C@H](CCCCN1C(=O)c2ccccc2C(C(=O)NCCc2cccc(Cl)c2)C1c1cc(C(F)(F)F)cc(C(F)(F)F)c1)NC(=O)Cc1ccccc1 (some centres unmarked) | – | – | MC-4 IC50 (MCR-4): no fit; MC-1 IC50 (MCR-1): no fit
5 | COc1ccccc1CCNC(=O)C1c2ccccc2C(=O)N(CCCC[C@H](NC(=O)c2ccccc2)C(N)=O)C1c1cc(C(F)(F)F)cc(C(F)(F)F)c1 (some centres unmarked) | – | – | MC-4 IC50 (MCR-4): no fit; MC-1 IC50 (MCR-1): no fit
6 | CN[C@H](CN)CCCCN1Cc2ccccc2C(CNCc2ccccc2O)C1c1ccc(NCCc2ccc(OC)cc2)cc1 (some centres unmarked) | – | – | pIC50 (MCR-4; [2]): 4.68; pIC50 (MCR-1; [3]): 5.77
7 | CNCCN[C@H](CN)CCCN1Cc2ccccc2C(CNCc2ccccc2O)C1c1ccc(-c2ccccc2)cc1 (some centres unmarked) | 4.69 | 5.62 | –
8 | CN[C@H](CN)CCCCN1Cc2ccccc2C(CNCc2ccccc2O)C1c1ccc(NCC(C)C)cc1 (some centres unmarked) | – | – | pIC50 (MCR-4; [2]): 4.80; pIC50 (MCR-1; [3]): 6.17
9 | COc1ccccc1CCNC(=O)C1c2ccccc2C(=O)N(CCCC[C@H](NC(=O)Cc2ccccc2)C(N)=O)C1c1cc(C(F)(F)F)cc(C(F)(F)F)c1 (some centres unmarked) | – | – | MC-4 IC50 (MCR-4): no fit; MC-1 IC50 (MCR-1): no fit
10 | CCCOc1ccc(C2C(C(=O)NCc3ccc(OC)cc3)c3ccccc3C(=O)N2CCCC[C@H](NC(=O)Cc2ccccc2)C(N)=O)cc1 (some centres unmarked) | – | – | MC-4 IC50 (MCR-4): no fit; MC-1 IC50 (MCR-1): no fit
11 | CCNc1ccc(C2C(CNCc3ccccc3O)c3ccccc3CN2CC[C@@H](CN)NCCc2ccccc2)cc1 (some centres unmarked) | 5.15 | 5.49 | –
12 | NCCN[C@H](CN)CCCN1Cc2ccccc2C(CNCc2ccccc2O)C1c1ccc(Cl)cc1Cl (some centres unmarked) | 5.35 | 5.78 | –
13 | CCNc1ccc(C2C(CNCc3ccccc3O)c3ccccc3CN2CCCC[C@@H](CN)NCCN)cc1 (some centres unmarked) | 4.83 | 6.02 | –
14 | COc1ccc(CNC(=O)C2c3ccccc3C(=O)N(CCCC[C@H](NC(=O)c3ccccc3)C(N)=O)C2c2cc(C(F)(F)F)cc(C(F)(F)F)c2)cc1 (some centres unmarked) | – | – | MC-4 IC50 (MCR-4): no fit; MC-1 IC50 (MCR-1): no fit
15 | CN[C@H](CN)CCCN1Cc2ccccc2C(CNCc2ccccc2O)C1c1ccc(-c2ccccc2)cc1 (some centres unmarked) | 4.95 | 5.45 | –
16 | CCNc1ccc(C2C(CNCc3ccccc3O)c3ccccc3CN2CCCC[C@@H](CN)NCCc2ccccc2)cc1 (some centres unmarked) | 5.07 | 5.93 | –
17 | CCNc1ccc(C2C(CNCc3ccccc3O)c3ccccc3CN2CCCC[C@H](CN)NCCN)cc1 (some centres unmarked) | 4.90 | 6.33 | –
18 | CCNc1ccc(C2C(CNCc3ccccc3O)c3ccccc3CN2CCCC[C@@H](CN)NCCNC)cc1 (some centres unmarked) | 4.75 | 5.78 | –
19 | NC[C@H](CCN1Cc2ccccc2C(CNCc2ccccc2O)C1c1ccc(Cl)cc1Cl)NCCc1ccccc1 (some centres unmarked) | 5.16 | 5.04 | –
20 | CNCCN[C@@H](CN)CCCCN1Cc2ccccc2C(CNCc2ccccc2O)C1c1ccc(-c2ccccc2)cc1 (some centres unmarked) | 4.72 | 5.77 | –
21 | NC[C@@H](N)CCCCN1Cc2ccccc2C(CNCc2ccccc2O)C1c1ccc(Cl)cc1Cl (some centres unmarked) | 5.66 | 5.74 | –

Row | Compound | pIC50 (MCR-4; [1]) | pIC50 (MCR-1; [1]) | further results
22 | NC[C@@H](N)CCCCN1Cc2ccccc2C(CNCc2ccccc2O)C1c1ccc(-c2ccccc2)cc1 (some centres unmarked) | 4.82 | 5.63 | –
23 | CNCCN[C@H](CN)CCCCN1Cc2ccccc2C(CNCc2ccccc2O)C1c1ccc(-c2ccccc2)cc1 (some centres unmarked) | 4.83 | 5.88 | –
24 | NC[C@H](CCCCN1Cc2ccccc2C(CNCc2ccccc2O)C1c1ccc(-c2ccccc2)cc1)NCCc1ccccc1 (some centres unmarked) | 4.90 | 5.39 | –
25 | CNCCN[C@H](CN)CCN1Cc2ccccc2C(CNCc2ccccc2O)C1c1ccc(-c2ccccc2)cc1 (some centres unmarked) | 5.01 | 5.32 | –
26 | COc1ccc(CNC(=O)C2c3ccccc3C(=O)N(CCCC[C@H](NC(=O)Cc3ccccc3)C(N)=O)C2c2ccc(Oc3ccccc3)cc2)cc1 (some centres unmarked) | – | – | MC-4 IC50 (MCR-4): no fit; MC-1 IC50 (MCR-1): no fit
27 | CN[C@H](CN)CCCN1Cc2ccccc2C(CNCc2ccccc2O)C1c1ccc(Cl)cc1Cl (some centres unmarked) | 5.36 | 5.68 | –
28 | CCNc1ccc(C2C(CNCc3ccccc3O)c3ccccc3CN2CC[C@@H](CN)NC)cc1 (some centres unmarked) | 4.67 | 5.51 | –
29 | CCNc1ccc(C2C(CNCc3ccccc3O)c3ccccc3CN2CCCC[C@@H](N)CN)cc1 (some centres unmarked) | 4.41 | 5.94 | –
30 | CCNc1ccc(C2C(CNCc3ccccc3O)c3ccccc3CN2CCCC[C@H](N)CN)cc1 (some centres unmarked) | 4.82 | 6.29 | –
31 | NC[C@H](N)CCCCN1Cc2ccccc2C(CNCc2ccccc2O)C1c1ccc(-c2ccccc2)cc1 (some centres unmarked) | 4.69 | 5.73 | –
32 | CCNc1ccc(C2C(CNCc3ccccc3O)c3ccccc3CN2CCC[C@@H](CN)NCCN)cc1 (some centres unmarked) | 4.79 | 5.84 | –
33 | CCCOc1ccc(C2C(C(=O)NCCc3ccccc3OC)c3ccccc3C(=O)N2CCCC[C@H](NC(=O)Cc2ccccc2)C(N)=O)cc1 (some centres unmarked) | – | – | MC-4 IC50 (MCR-4): no fit; MC-1 IC50 (MCR-1): no fit
34 | NCCN[C@H](CN)CCCCN1Cc2ccccc2C(CNCc2ccccc2O)C1c1ccc(-c2ccccc2)cc1 (some centres unmarked) | 4.66 | 5.58 | –
35 | COc1ccc(CNC(=O)C2c3ccccc3C(=O)N(CCCC[C@H](N)C(N)=O)C2c2cc(C(F)(F)F)cc(C(F)(F)F)c2)cc1 (some centres unmarked) | – | – | MC-4 IC50 (MCR-4): no fit; MC-1 IC50 (MCR-1): no fit
36 | NC[C@H](CCCCN1Cc2ccccc2C(CNCc2ccccc2O)C1c1ccc(Cl)cc1Cl)NCCc1ccccc1 (some centres unmarked) | 4.96 | 5.36 | –
37 | CCNc1ccc(C2C(CNCc3ccccc3O)c3ccccc3CN2CC[C@H](N)CN)cc1 (some centres unmarked) | 4.80 | 5.48 | –
38 | NC(=O)[C@H](CCCCN1C(=O)c2ccccc2C(C(=O)NCCc2cccc(Cl)c2)C1c1ccc(Oc2ccccc2)cc1)NC(=O)c1ccccc1 (some centres unmarked) | – | – | MC-4 IC50 (MCR-4): no fit; MC-1 IC50 (MCR-1): no fit
39 | NCCN[C@@H](CN)CCCCN1Cc2ccccc2C(CNCc2ccccc2O)C1c1ccc(-c2ccccc2)cc1 (some centres unmarked) | 4.54 | 5.37 | –
40 | CCNc1ccc(C2C(CNCCc3ccccc3)c3ccccc3CN2CCCC[C@@H](CN)NCc2ccc(Cl)cc2)cc1 (some centres unmarked) | – | – | pIC50 (MCR-4; [2]): 5.98; pIC50 (MCR-1; [3]): 6.80
41 | NCCN[C@H](CN)CCN1Cc2ccccc2C(CNCc2ccccc2O)C1c1ccc(-c2ccccc2)cc1 (some centres unmarked) | 4.76 | 5.34 | –
42 | NC[C@@H](N)CCCN1Cc2ccccc2C(CNCc2ccccc2O)C1c1ccc(-c2ccccc2)cc1 (some centres unmarked) | 4.90 | 5.60 | –

Row | Compound | pIC50 (MCR-4; [1]) | pIC50 (MCR-1; [1]) | further results
43 | CN[C@H](CN)CCCCN1Cc2ccccc2C(CNCc2ccccc2O)C1c1ccc(NCC2CCCCC2)cc1 (some centres unmarked) | – | – | pIC50 (MCR-4; [2]): 4.82; pIC50 (MCR-1; [3]): 5.61
44 | CN[C@H](CN)CCCCN1Cc2ccccc2C(CNCc2ccccc2O)C1c1ccc(NCc2ccccc2)cc1 (some centres unmarked) | 4.98 | 6.27 | –
45 | NCCN[C@H](CN)CCN1Cc2ccccc2C(CNCc2ccccc2O)C1c1ccc(Cl)cc1Cl (some centres unmarked) | 5.09 | 5.43 | –
46 | COc1ccccc1CCNC(=O)C1c2ccccc2C(=O)N(CCCC[C@H](N)C(N)=O)C1c1cc(C(F)(F)F)cc(C(F)(F)F)c1 (some centres unmarked) | – | – | MC-4 IC50 (MCR-4): no fit; MC-1 IC50 (MCR-1): no fit
47 | CCNc1ccc(C2C(CNCc3ccccc3O)c3ccccc3CN2CC[C@@H](CN)NCCN)cc1 (some centres unmarked) | 4.63 | 5.56 | –
48 | NCCN[C@@H](CN)CCCCN1Cc2ccccc2C(CNCc2ccccc2O)C1c1ccc(Cl)cc1Cl (some centres unmarked) | 5.25 | 5.77 | –
49 | CCCOc1ccc(C2C(C(=O)NCCc3cccc(Cl)c3)c3ccccc3C(=O)N2CCCC[C@H](NC(=O)Cc2ccccc2)C(N)=O)cc1 (some centres unmarked) | – | – | MC-4 IC50 (MCR-4): no fit; MC-1 IC50 (MCR-1): no fit
50 | NC[C@H](N)CCCCN1Cc2ccccc2C(CNCc2ccccc2O)C1c1ccc(Cl)cc1Cl (some centres unmarked) | 5.44 | 5.80 | –
51 | COc1ccc(CNC(=O)C2c3ccccc3C(=O)N(CCCC[C@H](NC(=O)Cc3ccccc3)C(N)=O)C2c2cc(C(F)(F)F)cc(C(F)(F)F)c2)cc1 (some centres unmarked) | – | – | MC-4 IC50 (MCR-4): no fit; MC-1 IC50 (MCR-1): no fit
52 | CNCCN[C@@H](CN)CCCCN1Cc2ccccc2C(CNCc2ccccc2O)C1c1ccc(Cl)cc1Cl (some centres unmarked) | 5.22 | 5.74 | –
53 | CCCOc1ccc(C2C(C(=O)NCCc3ccccc3OC)c3ccccc3C(=O)N2CCCC[C@H](NC(=O)c2ccccc2)C(N)=O)cc1 (some centres unmarked) | – | – | MC-4 IC50 (MCR-4): no fit; MC-1 IC50 (MCR-1): no fit
54 | CN[C@H](CN)CCCCN1Cc2ccccc2C(CNCc2ccccc2O)C1c1ccc(NCCOC)cc1 (some centres unmarked) | – | – | pIC50 (MCR-4; [2]): 4.74; pIC50 (MCR-1; [3]): 5.94
55 | CCNc1ccc(C2C(CNCc3ccccc3O)c3ccccc3CN2CCC[C@@H](CN)NCCNC)cc1 (some centres unmarked) | 4.87 | 6.04 | –
56 | NC(=O)[C@H](CCCCN1C(=O)c2ccccc2C(C(=O)NCCc2cccc(Cl)c2)C1c1ccc(Cl)cc1Cl)NC(=O)Cc1ccccc1 (some centres unmarked) | – | – | MC-4 IC50 (MCR-4): no fit; MC-1 IC50 (MCR-1): no fit
57 | CN[C@H](CN)CCCCN1Cc2ccccc2C(CNCc2ccccc2O)C1c1ccc(NCc2ccc(OC)cc2)cc1 (some centres unmarked) | – | – | pIC50 (MCR-4; [2]): 4.87; pIC50 (MCR-1; [3]): 5.40
58 | NCCN[C@H](CN)CCCCN1Cc2ccccc2C(CNCc2ccccc2O)C1c1ccc(Cl)cc1Cl (some centres unmarked) | 5.09 | 5.60 | –
59 | COc1ccccc1CCNC(=O)C1c2ccccc2C(=O)N(CCCC[C@H](NC(=O)Cc2ccccc2)C(N)=O)C1c1ccc(Cl)cc1Cl (some centres unmarked) | – | – | MC-4 IC50 (MCR-4): no fit; MC-1 IC50 (MCR-1): no fit
60 | NC(=O)[C@@H](N)CCCCN1C(=O)c2ccccc2C(C(=O)NCCc2cccc(Cl)c2)C1c1cc(C(F)(F)F)cc(C(F)(F)F)c1 (some centres unmarked) | – | – | MC-4 IC50 (MCR-4): no fit; MC-1 IC50 (MCR-1): no fit
61 | CNCCN[C@H](CN)CCN1Cc2ccccc2C(CNCc2ccccc2O)C1c1ccc(Cl)cc1Cl (some centres unmarked) | 5.19 | 5.41 | –

pIC50: −log10 of the molar value. Read-outs that look alike come from different tables or passages of the source.
